Test results taken from PubChem BioAssay AID624172 (National Center for Advancing Translational Sciences (NCATS), 2012).
This is a selection; strong and weak results do not stand in their true shares. Activity calls are given as the source filed them. The call rests on the fitted dose curve; in most records, active means well fitted activation curve with a large enough effect; inconclusive means small, poorly fitted or top-dose-only effect; inactive means no such curve, though single readings can be large or run the other way.

The chains behind the UniProt entries cited, without tags or fusion partners. Where a name states a change or a piece, a line headed by the entry shows the natural chain unless it says otherwise.
UniProt P43220, whole entry, stated change not applied: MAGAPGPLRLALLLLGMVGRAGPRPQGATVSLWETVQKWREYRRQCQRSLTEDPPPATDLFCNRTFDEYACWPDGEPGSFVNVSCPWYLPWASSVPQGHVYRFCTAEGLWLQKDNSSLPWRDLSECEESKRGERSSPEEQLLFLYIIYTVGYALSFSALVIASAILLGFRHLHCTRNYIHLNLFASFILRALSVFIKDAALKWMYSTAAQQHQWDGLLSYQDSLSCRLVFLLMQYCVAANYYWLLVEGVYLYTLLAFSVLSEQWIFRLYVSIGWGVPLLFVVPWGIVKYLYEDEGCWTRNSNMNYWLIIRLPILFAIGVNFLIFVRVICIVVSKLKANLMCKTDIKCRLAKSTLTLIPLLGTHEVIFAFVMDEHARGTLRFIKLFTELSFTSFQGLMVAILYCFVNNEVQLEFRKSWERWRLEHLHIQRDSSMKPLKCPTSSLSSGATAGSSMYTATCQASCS

Molecular target: Glucagon-like peptide 1 receptor (Homo sapiens) (UniProt P43220)
Assay: qHTS of GLP-1 Receptor Agonists; further: % of control where 0% means no effect
Details: HEK293 GLP-1R CRE-luciferase, luminescence, 4-6 h, cells express a hypersensitive GLP-1R form
From the text: The overall goal of this project was to develop a novel assay for discovering small molecule ligands for class B1 G protein-coupled receptors (GPCRs). Very few agonists (or inverse agonists) with generally weak activity for this entire group of physiologically important receptors are known to date. To establish proof-of-principle that this critical bottleneck can be overcome with a suitable screening approach, our studies focused on the class B1 receptor for glucagon-like peptide-1 (GLP-1R), a potential therapeutic target for diabetes and neurodegenerative disease.
The assay was developed in a "mix and measure" format using a cell-based functional readout. Toward this goal, stably transfected HEK293 cell clones were established that co-express (i) a cAMP-responsive luciferase reporter gene, and (ii) GLP-1Rs that upon ligand interaction either stimulate (agonists) or inhibit (inverse agonists) luciferase activity. In different cell lines to be used for screening, expressed GLP-1Rs are specifically optimized for high sensitivity detection of either weak agonists (hypersensitive receptor) or inverse agonists (constitutively active receptor mutant). In addition, control cell lines were developed that express either the cAMP-responsive reporter gene without recombinant GLP-1Rs (enabling initial exclusion of GLP-1R independent effects of candidate probes), or the reporter gene together with wild type GLP-1Rs (for confirmation of probe activity at this receptor), or the reporter gene in combination with the constitutively active orphan receptor GPR119 (enabling initial exclusion of GLP-1R independent inhibitory effects of candidate inverse agonists).
To that end, this assay was optimized for 1536-well format and screened against the MLSMR.
NIH Molecular Libraries Probe Production Network [MLPCN]
NIH Chemical Genomics Center [NCGC]
PI Name: Martin Beinborn, Tufts Medical Center
In a white solid 1536-well plate, 6 uL of cells are dispensed in DMEM without phenol red, 10% Nu serum, and 1% pen-strep medium. The plates are then incubated for 12 hours at 37 deg C at 5% CO2 before 23 nL of compounds are added. After a 4-6 hr incubation at37 deg C and 5% CO2, 3 uL of detection reagent are added and after a 12 min incubation at RT, a luminescent read is obtained on the ViewLux.

| Compound | activation (at 45.6 µM (top of the series)) | activation (at 96 µM (top of the series)) |
| --- | --- | --- |
| CCC(=O)N(c1ccccc1)C1(COC)CCN(CCc2cccs2)CC1 | inactive: -3.35% | inactive: -0.655% |
| CCC(=O)N(c1ccccc1)C1(COC)CCN(CCn2nnn(CC)c2=O)CC1 | inactive: -1.6% | inactive: 4.73% |
| CN(CCCl)CCCl | inactive: 5.83% | – |
